Target: Substance-P receptor (Homo sapiens, UniProt P25103)
Experiment: Inhibition of binding of [125I]SP to the CHO cell line expressing human Tachykinin receptor 1

Sequences of proteins named here, by UniProt entry; tags and fusion partners are left off.
UniProt P25103, whole entry, looked up: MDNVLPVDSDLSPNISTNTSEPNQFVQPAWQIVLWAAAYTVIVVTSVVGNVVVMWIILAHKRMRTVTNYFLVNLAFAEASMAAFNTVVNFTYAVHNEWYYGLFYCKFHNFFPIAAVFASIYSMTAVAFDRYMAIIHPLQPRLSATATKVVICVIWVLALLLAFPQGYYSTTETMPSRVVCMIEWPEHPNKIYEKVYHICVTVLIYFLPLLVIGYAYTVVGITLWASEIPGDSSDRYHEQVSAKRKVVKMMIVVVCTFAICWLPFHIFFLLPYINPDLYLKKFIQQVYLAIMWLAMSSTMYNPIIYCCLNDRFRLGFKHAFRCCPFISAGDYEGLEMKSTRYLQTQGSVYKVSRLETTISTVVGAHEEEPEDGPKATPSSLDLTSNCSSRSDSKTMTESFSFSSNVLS

In the case of `O=C(O[C@H]1C2CCN(CC2)[C@H]1C(c1ccccc1)c1ccccc1)c1ccccc1`, the IC50 is reported as greater than 1000 nM.
